# Shown are actives, neighbours in structure and some others; about 2.3% of the full set was active somewhere.
# A549 tox = counter-screen for Nrf2 inhibitors: cytotoxicity in A549 cells. Potency, µM (top dose mostly 46 µM), usual class: inhibitors. A549 ARE-Fluc cells, CellTiter-Fluor viability, 18-24 h. AID 504648. 0.16% of 390,000 active
#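 A549 ARE-Fluc cells in 5% FBS OPTI-MEM, 5000 cells/well, rested 2 h then exposed to compounds in concentration-response for 18-24 h at 37 °C. Viability by CellTiter-Fluor fluorescence (Ex 405/Em 525) after 30 min; luciferase luminescence (BugLite, 15 min, RT) read afterwards.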
# miR-21 reporter = raises the signal of a miR-21 reporter. Potency, µM (highest dose often 38.3 µM). 340,000 tested, under 10 active. HeLa miR-21 FLuc reporter, luciferase, 48 h; active = well fitted rising curve with a large enough effect; inconclusive = small, poorly fitted or top-dose-only effect; inactive = no such curve, though single readings can be large or run the other way;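 further: miR-21 action dims this reporter so a rising signal means less miR-21 action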
#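 Compounds were titrated across several concentrations (up to approximately 40 uM) and incubated 48 hours with HeLa miR-21-FLuc reporter cells (miR-21 target sequence downstream of FLuc, endogenous miR-21). Readout was firefly luciferase luminescence after lytic detection reagent.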
# Nrf2 ARE act = activators of Nrf2 (ARE) signaling; AREc32 ARE-luciferase reporter (MCF7-derived line), luminescence, 24 h; Potency, µM (doses to about 46.1 µM), actives largely listed as activators; 0.31% of 410,000 active; AID 624171; also: nearly all actives have a fitted effect of over 65% in size
#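 ARE activation measured as luciferase luminescence (Steady-Glo, 30 min RT) in AREc32_Fluc cells after 24 hr compound exposure at 37 deg C, 5% CO2; cells seeded overnight at 1000/well in OPTI-MEM, 5% FBS.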
# Nrf2 inh = Nrf2 pathway inhibition | A549 ARE-Fluc reporter, luciferase luminescence, 18-24 h | Potency, µM (highest dose often 46 µM), most hits filed as inhibitors | 2.1% of 360,000 active | AID 504444; also: nearly all actives have a fitted effect of over 60% in size
#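 Two sequential reads on A549 ARE_Fluc cells exposed to compound for 18-24 h: a CellTiter-Fluor fluorescence read for viability, then a luciferase luminescence read for Nrf2/ARE activity.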
# Glioma ERSR ind = ER stress response induction in glioma | AID 602332 | U87-MG GRP78 promoter luciferase reporter, 16 h | 0.02% of 420,000 active | Potency, µM, hits mostly activators; also: series mostly up to about 76 µM; nearly all actives have a fitted effect of over 35% in size
#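 Stably transfected U87-MG glioma cells carrying a GRP78-based luciferase sensor; 16 h compound incubation. Luminescence end-point read 10 min after Bright-Glo addition at room temperature.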
# Mito fusion act = inhibitors of mitochondrial division or activators of mitochondrial fusion | 0.23% of 320,000 active | S. cerevisiae fusion-defective mutant growth rescue, CellTiterGlo 48 h | Potency, µM (highest dose often 46.1 µM), hits mostly activators | AID 485298; also: nearly all actives have a fitted effect of over 45% in size
#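 Growth-rescue viability read-out: after 48 h at the non-permissive 37C in glycerol/ethanol YPEG, yeast mitochondrial fusion mutants are measured by CellTiterGlo luminescence; compounds (23 nl pinned per well) restoring growth score as division inhibitors or fusion activators.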
# Hits are given with their value; n = inactive; u = inconclusive; x = no result given; [ ] = remark or other dose. Unless noted, calls follow the shape of the dose curve; as a rule, active = well fitted curve in the direction sought with a large enough effect; inconclusive = small, poorly fitted or top-dose-only effect, or another doubt; inactive = no such curve, though single readings can be large; an effect the other way counts as inactive or inconclusive.
SMILES,A549 tox,miR-21 reporter,Nrf2 ARE act,Nrf2 inh,Glioma ERSR ind,Mito fusion act
Cc1cc(/C=C2\NC(=S)N(C)C2=O)ccc1N1CCCC1,n,n,n,u,n,n
CCCc1cc(=O)oc2c3c(cc(OCC(=O)NCc4ccncc4)c12)OC(C)(C)CC3,u,n,n,12µM,n,n
CCCc1cc(=O)oc2c3c(cc(OCC(=O)NCc4ccccn4)c12)OC(C)(C)CC3,n,n,n,u,n,n
Cn1cc(S(=O)(=O)c2ccc(Cl)cc2)c(=O)c2cc(F)c(N3CCCCCC3)cc21,n,n,n,16µM,n,x
O=C(CN1CC(=O)Oc2ccccc21)OCC(=O)c1cccc(Br)c1,n,n,13µM,n,n,n
O=C(CN1CC(=O)Oc2ccccc21)OCC(=O)c1ccccc1,u,n,u,n,n,n
O=C(NCCC1CCCCN1S(=O)(=O)c1ccc(F)cc1)C(=O)NC1CCCC1 (configuration not stated),n,x,n,n,n,n
Cc1ccc(S(=O)(=O)N2CCN(C(=O)COC(=O)c3ccccc3Cl)CC2)c(C)c1,n,x,n,n,n,n
Cc1ccc(C)c(N2CCN(C(=O)CCC(=O)Nc3nnc(CC(C)C)s3)CC2)c1,n,n,n,u,n,n
CCCc1nnc(NC(=O)CCC(=O)N2CCN(Cc3ccc(Cl)cc3)CC2)s1,n,n,n,15µM,n,n
CC(C)Cc1nnc(NC(=O)CCC(=O)N2CCN(c3ccc(Cl)cc3)CC2)s1,n,n,n,18µM,n,n
CCc1nnc(NC(=O)CCC(=O)N2CCN(Cc3ccccc3)CC2)s1,n,n,n,n,n,n
CCc1nnc(NC(=O)Cc2ccc(S(=O)(=O)N3CCCCC3)cc2)s1,n,x,n,21µM,n,n
CCc1nnc(NC(=O)CCC(=O)N2CCN(Cc3ccc(Cl)cc3)CC2)s1,n,n,n,23µM,n,n
CCCc1nnc(NC(=O)CCC(=O)N2CCN(Cc3cc(F)ccc3OC)CC2)s1,n,n,n,n,n,n
CC(C)Cc1nnc(NC(=O)CCC(=O)N2CCN(Cc3ccc(F)cc3)CC2)s1,n,n,n,u,n,n
Cc1ccc(OCCN2CCN(C(=O)CCC(=O)Nc3nnc(CC(C)C)s3)CC2)cc1,n,n,n,10µM,n,n
Cc1cccc(NC(=O)C(=O)NCC(c2cccnc2)N2CCc3ccccc32)c1C (configuration not stated),n,n,n,n,n,x
CC(=O)Nc1nc2c(c3c1c(=O)oc1ccccc13)CC(C)CC2 (configuration not stated),x,n,x,x,x,n
COc1ccc(/C=C/C(=O)Nc2ccc(OC)nc2)cc1,n,n,n,u,n,n
COc1ccc(NC(=O)/C=C/c2cccc(C(F)(F)F)c2)cn1,n,n,u,u,n,n
COc1ccc(NC(=O)/C=C/c2cccc(Br)c2)cn1,n,n,n,16µM,n,n
COc1ccc(NC(=O)/C=C/c2ccc(OC(F)F)cc2)cn1,n,n,n,18µM,n,n
COc1ccccc1NC(=O)COC(=O)C1CC(=O)N(c2ccc3c(c2)OCCO3)C1 (configuration not stated),n,x,n,n,n,x
O=C(NC1CCN(S(=O)(=O)c2ccc(Cl)cc2)CC1)c1cccnc1,n,n,n,n,n,n
SMILES,A549 tox,miR-21 reporter,Nrf2 ARE act,Nrf2 inh,Glioma ERSR ind,Mito fusion act
COc1ccc(Br)cc1[C@@H]1Nc2ccc(C(=O)O)cc2[C@@H]2C=CC[C@@H]21,n,n,n,n,n,x
COc1ccc(S(=O)(=O)N2CCN(CCc3ccccc3)CC2)c(OC)c1,n,n,n,16µM,n,n
COc1ccc(OC)c(S(=O)(=O)N2CCN(Cc3ccccc3)CC2)c1,n,n,n,n,n,n
Cc1sc(NC(=O)c2ccc(F)cc2)c(CN2CCCCCC2)c1C,n,n,13µM,n,n,n
Cc1ccc(C)c(CSc2nnc(C)n3c2cc2sccc23)c1,n,n,n,26µM,n,x
CC(=O)Oc1ccc(Cl)cc1/C=C/c1ccc2ccccc2n1,n,n,u,n,n,n
CC(=O)Oc1c(Cl)cc(Cl)cc1/C=C/c1ccc2ccccc2n1,n,n,13µM,n,u,n
Cc1ccc(S(=O)(=O)N(C)C)cc1NC(=S)N(CCC#N)Cc1cccnc1,n,n,n,n,n,7.1µM
CN(C)S(=O)(=O)c1cccc(C(=O)NC(=S)N(CCC#N)Cc2cccnc2)c1,n,n,n,u,n,n
COC(=O)[C@H](C)NC(=O)Nc1cccc(Br)c1,n,n,n,n,n,n
Cc1ccnc(OC(C(=O)O)C(OCc2ccccc2)(c2ccccc2)c2ccc(C(F)(F)F)cc2)n1 (configuration not stated),n,n,n,10µM,n,n
Cc1ccc(C(=O)CC2(O)C(=O)N(C)c3ccccc32)o1 (configuration not stated),n,n,n,n,n,n
CCN(CC)c1ccc(C(=C2C=CC(=[N+](CC)CC)C=C2)c2ccc(N(CC)CC)cc2)cc1,7.3µM,x,n,5.8µM,n,x
Nc1ncc(Br)cc1S(=O)(=O)NCCC(=O)N1CCN(c2ncccn2)CC1,n,n,n,18µM,n,n
Cn1c(CSc2nc3ccc(Br)cc3[nH]2)nc2ccccc21,u,n,n,21µM,n,n
CCOC(=O)c1c(C)[nH]c(C(=O)COC(=O)CNC(=O)c2ccc(Cl)cc2)c1C,n,n,n[9.22 µM],n,n,n
CC(C)C(=O)NC(c1ccc(Cl)cc1Cl)c1ccc2cccnc2c1O (configuration not stated),u,n,n,13µM,n,n
CC(=O)NC(c1ccc(Cl)cc1)c1ccc2cccnc2c1O (configuration not stated),n,x,n,u,n,x
CC(=O)NC(c1ccco1)c1ccc2cccnc2c1O (configuration not stated),n,u,n,16µM,n,n
CCC(=O)NC(c1ccc(Cl)cc1Cl)c1ccc2cccnc2c1O (configuration not stated),n,n,n,u,n,n
Cc1noc(C)c1C(=O)N1CCC2(CCCN(C(=O)Nc3cccc(C#N)c3)C2)CC1,x,x,x,x,n,x
O=C(N/N=C/c1cc([N+](=O)[O-])ccc1Cl)c1ccc2nc[nH]c2c1,n,n,n,u,n,n
CO/N=C/c1c(-c2ccccc2)nn(C)c1Cl,n,n,n,n,n,n
Nc1ccc2nc(SCc3cccc(F)c3)sc2c1,n,n,n,u,n,n
Cc1ccc(-n2c(O)c(C=NCc3ccccn3)c3ccccc3c2=O)cc1C,n,n,n,10µM,n,n
N#C/C(=C(\O)Cc1ccccc1)c1nc2ccccc2[nH]1,n,n,n,x,n,n

# Source: PubChem (National Center for Advancing Translational Sciences (NCATS))
